Laboratory results published in PMC9386913, “CC-99677, a novel, oral, selective covalent MK2 inhibitor, sustainably reduces pro-inflammatory cytokine production” (Arthritis Research & Therapy, 2022).

Chains of the proteins cited; added tags and fusions are not shown.
UniProt P49137, whole entry: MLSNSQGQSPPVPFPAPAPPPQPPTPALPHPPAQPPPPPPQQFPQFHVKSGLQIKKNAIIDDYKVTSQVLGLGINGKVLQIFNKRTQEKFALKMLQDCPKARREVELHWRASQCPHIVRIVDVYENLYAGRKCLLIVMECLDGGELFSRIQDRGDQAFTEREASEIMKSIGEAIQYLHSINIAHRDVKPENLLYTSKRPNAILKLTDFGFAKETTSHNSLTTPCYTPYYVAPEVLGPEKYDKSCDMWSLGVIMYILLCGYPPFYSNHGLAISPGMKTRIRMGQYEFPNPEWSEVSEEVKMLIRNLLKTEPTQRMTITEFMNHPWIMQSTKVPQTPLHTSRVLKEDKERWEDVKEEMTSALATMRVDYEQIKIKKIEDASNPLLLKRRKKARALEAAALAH

Molecular target: MK2 (Homo sapiens, UniProt P49137)

SMILES: CCOCc1cnc(Cl)nc1Oc1ccc2c(ccc3sc4c(c32)NC[C@@H](C)NC4=O)n1 [CC-99677]
- MK2 target engagement (150 mg): > 70%
- Average MK2 occupancy (120-mg dose cohort): approximately 70%
- Average MK2 occupancy (150-mg dose cohort): approximately 70%
- Average MK2 occupancy (day 8, 10-mg dose cohort): 28%
- Duration of MK2 occupancy after last dose (last dose day 14): stable until day 15 (1 day after the last dose) and returned to baseline levels 14 days after the last dose

Where two headings read alike, the source gives them in different places.
